From patent US12186294B2, “Modulators of prostate-specific g-protein receptor (PSGR/OR51E2) and methods of using same” (Duke University, priority 2016, dated 2025) come the findings set out here.

SMILES strings stand for the structures.

In the experiment the target is T1, OR51E2 (Homo sapiens, UniProt Q9H255).
T1 construct: expressed in transfected cells; host or cells: Hana3A cells (modified human embryonic kidney cells)
T1 sequence (Q9H255 1-320): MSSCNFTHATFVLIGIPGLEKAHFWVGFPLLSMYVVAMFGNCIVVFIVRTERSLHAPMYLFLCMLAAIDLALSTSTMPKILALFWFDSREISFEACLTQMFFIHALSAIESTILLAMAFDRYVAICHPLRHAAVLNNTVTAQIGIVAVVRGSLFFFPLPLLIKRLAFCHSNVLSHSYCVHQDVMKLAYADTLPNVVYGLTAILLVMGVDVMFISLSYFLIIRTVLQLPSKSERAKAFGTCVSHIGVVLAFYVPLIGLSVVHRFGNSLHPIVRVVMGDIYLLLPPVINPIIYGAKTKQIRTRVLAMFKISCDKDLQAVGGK
Briefly: in vitro luciferase assay (CRE-Luc) in Hana3A cells transfected with OR51E2. It counts as cell-based. The settings on record: compared to the 1 mM PA response. The procedure:
Hana3A cells (modified human embryonic kidney cells) were cultured in 96 well plates in M10PSF medium. LNCaP human prostate cancer cells were cultured in both RPMI medium and androgen deprived RPMI medium. Hana3A cells were transfected with CRE-Luc (CREB-dependent luciferase (Firefly)) and SV40-RL promoter plasmids, and pCI and OR51E2 plasmids. […] Upon ligand binding, an increase in cAMP drives the expression of Firefly luciferase. Increase in luminescence signal was measured with a luminometer and Optima Data Analysis software. The luminescent signal is directly proportional to receptor activation. A general schematic of a luciferase assay is shown in FIG. 5 and a schematic of the assay used in this Example is shown in FIG. 6.
The top 56 compounds from the VLS list were tested using the in vitro expression and luciferase assay. […] The biologically relevant concentrations of each metabolite were individually determined based on available data in the literature. If no data were available, compounds were tested in the range of 1 nM-100 μM. Responses were normalized to the response with 1 mM propionic acid (PA), a previously identified agonist, and also to a response with no-control.
As to `O=C(O)[C@@H](O)CO` [L-Glyceric acid], the Efficacy stood at 0.898.

Take `N[C@H](CO)Cc1c[nH]cn1` [L-Histidinol]: the Efficacy came to 0.578.

In turn, `Nc1nc2nc(O)[nH]c2c(=O)[nH]1` [8-Hydroxyguanine] showed an Efficacy of 0.570.
